The text below walks through data of BindingDB's records for PubMed 9686407 (Sri International, 1998).

Amino acid sequences for entries named in this document (tags omitted). A change or cut given only in a name is not applied to a line headed by its entry. Chains listed by the source or under a name are the forms on record and can include a tag or linker.
UniProt P35372, whole entry: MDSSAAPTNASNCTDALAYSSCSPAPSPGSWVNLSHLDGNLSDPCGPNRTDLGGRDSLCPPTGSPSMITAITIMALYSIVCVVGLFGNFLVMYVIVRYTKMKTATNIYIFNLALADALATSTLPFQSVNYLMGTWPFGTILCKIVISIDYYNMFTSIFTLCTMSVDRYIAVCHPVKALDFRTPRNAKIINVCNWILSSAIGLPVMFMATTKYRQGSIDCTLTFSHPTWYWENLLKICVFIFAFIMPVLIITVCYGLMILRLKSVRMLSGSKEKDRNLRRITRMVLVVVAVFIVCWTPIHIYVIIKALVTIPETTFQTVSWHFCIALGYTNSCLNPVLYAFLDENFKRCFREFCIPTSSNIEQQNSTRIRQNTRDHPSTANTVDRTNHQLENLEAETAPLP
UniProt P21728, whole entry: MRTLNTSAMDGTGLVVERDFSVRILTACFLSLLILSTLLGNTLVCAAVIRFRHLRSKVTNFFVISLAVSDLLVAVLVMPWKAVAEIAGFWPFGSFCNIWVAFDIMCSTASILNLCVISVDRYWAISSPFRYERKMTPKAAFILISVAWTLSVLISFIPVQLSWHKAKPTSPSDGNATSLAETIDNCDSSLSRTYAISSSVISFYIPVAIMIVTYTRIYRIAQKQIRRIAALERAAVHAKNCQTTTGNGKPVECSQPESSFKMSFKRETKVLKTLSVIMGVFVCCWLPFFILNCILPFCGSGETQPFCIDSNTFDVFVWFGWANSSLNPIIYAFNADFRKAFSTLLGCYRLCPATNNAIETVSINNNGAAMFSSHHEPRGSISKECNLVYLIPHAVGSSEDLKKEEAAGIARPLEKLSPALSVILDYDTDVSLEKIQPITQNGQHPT
UniProt P35462, as listed by the source: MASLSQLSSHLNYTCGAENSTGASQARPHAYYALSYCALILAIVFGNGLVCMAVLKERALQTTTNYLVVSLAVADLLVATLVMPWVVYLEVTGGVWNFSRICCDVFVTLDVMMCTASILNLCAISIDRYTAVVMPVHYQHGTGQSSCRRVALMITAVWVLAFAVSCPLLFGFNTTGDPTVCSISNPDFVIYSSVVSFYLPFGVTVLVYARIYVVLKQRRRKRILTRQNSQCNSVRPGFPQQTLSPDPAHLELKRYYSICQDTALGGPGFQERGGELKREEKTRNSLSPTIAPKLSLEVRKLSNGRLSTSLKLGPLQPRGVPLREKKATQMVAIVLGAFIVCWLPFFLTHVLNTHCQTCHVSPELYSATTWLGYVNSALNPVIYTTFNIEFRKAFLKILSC
UniProt P08908, whole entry: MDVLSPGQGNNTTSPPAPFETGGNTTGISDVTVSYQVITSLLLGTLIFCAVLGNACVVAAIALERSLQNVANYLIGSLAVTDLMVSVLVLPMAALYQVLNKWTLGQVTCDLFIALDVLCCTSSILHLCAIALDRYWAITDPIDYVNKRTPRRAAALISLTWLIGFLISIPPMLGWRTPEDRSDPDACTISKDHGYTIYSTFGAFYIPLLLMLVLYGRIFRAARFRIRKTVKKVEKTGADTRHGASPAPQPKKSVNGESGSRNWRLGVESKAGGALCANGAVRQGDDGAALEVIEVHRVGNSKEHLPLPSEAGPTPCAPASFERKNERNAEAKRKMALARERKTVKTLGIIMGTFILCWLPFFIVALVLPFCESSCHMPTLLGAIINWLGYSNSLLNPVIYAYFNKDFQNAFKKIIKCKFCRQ
UniProt P41145: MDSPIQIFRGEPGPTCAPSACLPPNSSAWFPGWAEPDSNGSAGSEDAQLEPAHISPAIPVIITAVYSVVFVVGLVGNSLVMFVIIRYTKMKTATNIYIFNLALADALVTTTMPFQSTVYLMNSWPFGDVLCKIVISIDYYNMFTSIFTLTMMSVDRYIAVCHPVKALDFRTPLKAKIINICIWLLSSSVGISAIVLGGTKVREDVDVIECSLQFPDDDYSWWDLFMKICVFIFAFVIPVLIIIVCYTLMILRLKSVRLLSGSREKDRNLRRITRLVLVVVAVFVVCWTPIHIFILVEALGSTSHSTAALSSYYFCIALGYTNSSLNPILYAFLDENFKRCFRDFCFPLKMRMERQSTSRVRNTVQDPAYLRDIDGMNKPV
UniProt P14842, whole entry: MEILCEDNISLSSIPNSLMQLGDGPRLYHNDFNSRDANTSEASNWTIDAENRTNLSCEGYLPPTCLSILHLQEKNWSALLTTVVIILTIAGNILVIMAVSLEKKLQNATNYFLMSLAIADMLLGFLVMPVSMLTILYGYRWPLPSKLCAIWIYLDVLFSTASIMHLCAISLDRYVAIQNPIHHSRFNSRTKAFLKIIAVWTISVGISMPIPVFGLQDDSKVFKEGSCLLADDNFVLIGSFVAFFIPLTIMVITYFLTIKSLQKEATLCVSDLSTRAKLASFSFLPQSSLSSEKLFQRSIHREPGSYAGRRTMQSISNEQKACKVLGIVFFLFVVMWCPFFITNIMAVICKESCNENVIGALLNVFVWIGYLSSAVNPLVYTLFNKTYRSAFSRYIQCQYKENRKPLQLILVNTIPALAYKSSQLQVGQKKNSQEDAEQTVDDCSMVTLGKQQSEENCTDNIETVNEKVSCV
UniProt P41143, whole entry: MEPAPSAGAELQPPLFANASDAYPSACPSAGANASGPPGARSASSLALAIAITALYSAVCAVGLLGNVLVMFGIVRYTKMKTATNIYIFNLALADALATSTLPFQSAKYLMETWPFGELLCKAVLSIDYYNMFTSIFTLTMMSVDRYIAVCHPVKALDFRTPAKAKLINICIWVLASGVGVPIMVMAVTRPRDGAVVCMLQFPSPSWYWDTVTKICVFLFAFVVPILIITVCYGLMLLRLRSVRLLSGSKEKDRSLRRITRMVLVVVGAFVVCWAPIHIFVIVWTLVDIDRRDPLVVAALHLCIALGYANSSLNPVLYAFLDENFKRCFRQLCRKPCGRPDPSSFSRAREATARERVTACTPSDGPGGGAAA

Each structure is given as a SMILES string. A value given as a limit tells only on which side of the number the result lay.

Targets include Mu-type opioid receptor (Homo sapiens, UniProt P35372); D(1A) dopamine receptor (Homo sapiens, UniProt P21728); D(3) dopamine receptor (Homo sapiens, UniProt P35462).
For test [1], the target named is 5-hydroxytryptamine receptor 1A (Homo sapiens, UniProt P08908).
The target in test [2] is Kappa-type opioid receptor (Homo sapiens, UniProt P41145).
Test [3] has as its target T1, 5-hydroxytryptamine receptor 2C (Rattus norvegicus, UniProt P08909).
T1 sequence (P08909 whole entry): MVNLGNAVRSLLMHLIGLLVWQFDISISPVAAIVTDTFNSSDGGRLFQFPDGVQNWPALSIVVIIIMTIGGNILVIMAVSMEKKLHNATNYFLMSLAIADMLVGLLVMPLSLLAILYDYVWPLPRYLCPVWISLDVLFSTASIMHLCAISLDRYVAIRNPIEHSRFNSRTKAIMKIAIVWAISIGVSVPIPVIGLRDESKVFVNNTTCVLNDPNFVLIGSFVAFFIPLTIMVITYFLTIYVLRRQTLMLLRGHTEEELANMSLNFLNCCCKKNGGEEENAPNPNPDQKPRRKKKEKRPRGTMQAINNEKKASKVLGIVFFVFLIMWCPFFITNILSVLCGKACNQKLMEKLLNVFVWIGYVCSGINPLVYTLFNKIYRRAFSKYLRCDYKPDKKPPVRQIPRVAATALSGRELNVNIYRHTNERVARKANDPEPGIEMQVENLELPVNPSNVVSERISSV

The target in test [4] is 5-hydroxytryptamine receptor 2A (Rattus norvegicus, UniProt P14842).
Test [5] concerns the target Delta-type opioid receptor (Homo sapiens, UniProt P41143).

One may read the Ki as a dissociation constant, usually derived from enzyme kinetics or from competition with a known ligand. A low value points to a stronger hold on the target. In test [1], `COC(=O)[C@@H]1[C@H]2C[C@H]3c4[nH]c5ccccc5c4CCN3C[C@@H]2CC[C@@H]1O` [yohimbic acid methyl ester] registered a Ki of 642 nM.

On to `CC(C)C[C@H](NC(=O)[C@H](Cc1ccccc1)NC(=O)CNC(=O)CNC(=O)[C@@H](N)Cc1ccc(O)cc1)C(=O)N[C@@H](CCCN=C(N)N)C(=O)N[C@@H](CCCN=C(N)N)C(=O)N[C@@H](CCC(N)=O)C(=O)N[C@@H](Cc1ccccc1)C(=O)N[C@@H](CCCCN)C(=O)N[C@H](C(=O)N[C@H](C(=O)N[C@H](C(=O)O)[C@@H](C)O)C(C)C)C(C)C` [Dynorphin B (1-13)], for which the Ki came out at 3 nM at Mu-type opioid receptor and 0.3 nM in test [2].

On Mu-type opioid receptor, `CN1CC[C@]23CCCC[C@H]2[C@H]1Cc1ccc(O)cc13` [CAS_5985-38-6] showed a Ki of 0.3 nM. `O=C(CCCN1CCC2(CC1)C(=O)NCN2c1ccccc1)c1ccc(F)cc1` [8-[4-(4-fluorophenyl)-4-oxidanylidene-butyl]-1-phenyl-1,3,8-triazaspiro[4.5]decan-4-one] displayed an inhibitory constant (Ki) in test [3] of 4090 nM.

For the compound `CC[C@H](C)[C@H](NC(=O)[C@H](CCCNC(=N)N)NC(=O)[C@H](CCCNC(=N)N)NC(=O)[C@H](CC(C)C)NC(=O)[C@H](Cc1ccccc1)NC(=O)CNC(=O)CNC(=O)[C@@H](N)Cc1ccc(O)cc1)C(=O)N[C@@H](CCCNC(=N)N)C(=O)N1CCC[C@H]1C(=O)N[C@@H](CCCCN)C(=O)N[C@@H](CC(C)C)C(=O)N[C@@H](CCCCN)C(=O)O` [Dynorphin A (1-13)], the Ki on Mu-type opioid receptor is 4.5 nM. In the case of `Oc1ccc2c3c1OC1c4[nH]c5ccccc5c4CC4(O)[C@H](C2)N(CC2CC2)CCC314` (stereo not given in full) [NALTRINDOLE], in test [2], affinity was put at a Ki of 10.1 nM. In turn, `CN(C)CCCN1c2ccccc2CCc2ccccc21` showed a Ki in test [4] of 102 nM.

As to `CC(C)C[C@@H](NC(=O)[C@H](Cc1ccccc1)NC(=O)CNC(=O)[C@@H](C)NC(=O)[C@@H](N)Cc1ccc(O)cc1)C(=O)O` [[D-Ala2-D-Leu5]enkephalin], the values for the Ki (on Mu-type opioid receptor; in test [2]) were 1.8 nM and > 10000 nM, respectively. For `CN1Cc2c(N)cccc2[C@H](c2ccccc2)C1` [(+/-)-2-Methyl-4-phenyl-1,2,3,4-tetrahydro-isoquinolin-8-ylamine], in test [3], the Ki is > 10000 nM. Consider `NCCc1c[nH]c2ccc(O)cc12` [[3H]-5-HT], for which the Ki at D(1A) dopamine receptor is > 10000 nM. Take `C=C1CCC2(O)C3Cc4ccc(O)c5c4C2(CCN3CC2CC2)C1O5` (stereo not given) [NSC_119501]: the Ki is 7.3 nM in test [5] and 0.3 nM in test [2]. For `CCN1CCCC1CNC(=O)c1cc(S(N)(=O)=O)ccc1OC` (stereo not given) [N-[(1-ethylpyrrolidin-2-yl)methyl]-2-methoxy-5-sulfamoylbenzamide], the Ki on D(3) dopamine receptor was 15 nM. Regarding `CC(C)[C@H](NC(=O)[C@H](CCC(=O)O)NC(=O)[C@H](Cc1ccccc1)NC(=O)[C@@H](C)NC(=O)[C@@H](N)Cc1ccc(O)cc1)C(=O)N[C@H](C(=O)NCC(N)=O)C(C)C` [Tyr-D-Ala-Phe-Glu-Val-Val-GlyNH2], at Mu-type opioid receptor, the affinity, expressed as Ki, was 2080 nM.

Regarding `CC[C@H](C)[C@H](NC(=O)[C@H](CCCN=C(N)N)NC(=O)[C@H](CCCN=C(N)N)NC(=O)[C@H](CC(C)C)NC(=O)[C@H](Cc1ccccc1)NC(=O)CNC(=O)CNC(=O)[C@@H](N)Cc1ccc(O)cc1)C(=O)O`, the results for the Ki in test [5] and in test [2] were 3.6 nM and 0.2 nM, respectively. `C[C@H](N)Cc1ccccc1` [beta-aminopropylbenzene]: on D(1A) dopamine receptor, the Ki was > 10000 nM. On the same count and under the same terms, under `OCCN1CCN(CC/C=C2/c3ccccc3Sc3ccc(C(F)(F)F)cc32)CC1` [(cis) 2-{4-[3-(2-Trifluoromethyl-thioxanthen-9-ylidene)-propyl]-piperazin-1-yl}-ethanol(Flupentixol)] stands 3 nM.
